The values below are quoted from earlier work in US8394763B2, “Cyclic undecapeptides and derivatives as multiple sclerosis therapies” (Oregon Health & Science University, priority 2007, dated 2013).

By UniProt entry, the sequences of proteins in these tests, tags left out.
UniProt P62937, whole entry, species assumed: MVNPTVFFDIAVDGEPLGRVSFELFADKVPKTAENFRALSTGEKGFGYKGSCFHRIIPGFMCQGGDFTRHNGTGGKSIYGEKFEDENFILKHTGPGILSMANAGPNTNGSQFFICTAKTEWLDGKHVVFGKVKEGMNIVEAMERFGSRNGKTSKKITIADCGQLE

This data set concerns the target CypA (Homo sapiens, UniProt P62937). Particulars: see U.S. Pat. No. 6,927,208 and WO 2006/038088; cited from earlier work.
Turning to “Cyclo[L-alanyl-D-alanyl-N-methyl-L-leucyl-N-methyl-L-leucyl-N-methyl-L-valyl-(2S,3R,4R,6E)-3-hydroxy-4-methyl-2-methylamino-6-octenoyl-(2S)-2-aminobutanoyl-N-methyl-D-alanyl-N-ethyl-L-valyl-L-valyl-N-methyl-L-leucyl] [[D-MeAla]^3-[EtVal]^4-CsA]”, the “apparent Ki for CypA activity compared with CsA” value (“apparent Ki … compared with CsA” for short) is on record as “less than the Ki of CsA”.

Turning to [MeIle]^4-CsA, the “apparent Ki … compared with CsA” value was “less than the Ki of CsA”.

In the case of [MeVal]^4-CsA, the “apparent Ki … compared with CsA” value is listed as “less than the Ki of CsA”.
